Results reported in PubChem BioAssay (Tox21).
Only a part is listed here, and it is no random draw. Some tests of the compounds listed are not included; inactive here does not mean inactive elsewhere. Inconclusive results are not listed. Activity calls are given as the source filed them. Unless noted, the call rests on the fitted dose curve; in most records, active means well fitted curve in the direction sought with a large enough effect in the repeat runs; inconclusive means weak or mixed curves; inactive means no such curve, though single readings can be large; an effect the other way counts as inactive or inconclusive.

What was measured:
[1] = qHTS assay for small molecules that induce genotoxicity in human embryonic kidney cells expressing luciferase-tagged ATAD5 (AID 651632); details: HEK293T ATAD5-luciferase induction, 16 h; at 83.3 µM (top of the series); further: nearly all actives have a fitted effect of over 15% in size
Outline: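 A rise in luciferase signal from ATAD5-tagged HEK293T cells marks genetic stress. Cells were exposed to compounds for 16 hr at 37C, 5% CO2, then luciferase was quantified after a 30 min room-temperature incubation with Amplite.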

[2] = qHTS assay for small molecule agonists of the p53 signaling pathway - cell viability (AID 651633; calls by dose curve;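 further: p53RE-bla HCT reporter cells with a stable beta-lactamase p53 reporter; nearly all actives have a fitted effect of over 30% in size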); details: p53RE-bla HCT-116 viability, ATP luminescence, 16 h; at 83.3 µM (top of the series)
Outline: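 p53RE-bla cells, seeded at 4,000 per well and rested 5 h at 37 C/5% CO2, received compounds in DMSO for 16 h at 37 C. CellTiter-Glo was then added, and luminescence was read after 30 min at room temperature to gauge cytotoxicity.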

[3] = qHTS assay for small molecules that induce genotoxicity in human embryonic kidney cells expressing luciferase-tagged ATAD5 - cell viability (AID 651634; calls by dose curve; further: nearly all actives have a fitted effect of over 25% in size); details: HEK293T ATAD5-luc cells viability, CellTiter-Fluor, 15.5 h; at 83.3 µM (top of the series)
Outline: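 Cytotoxicity counter-readout: after 15.5 hr compound treatment at 37C, live-cell protease activity in ATAD5-luciferase HEK293T cells measured by CellTiter-Fluor fluorescence, 30 min development at 37C.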

[4] = qHTS assay for small molecule disruptors of the mitochondrial membrane potential - cell viability (AID 720634; calls by dose curve;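 further: human HepG2 liver cancer cells; nearly all actives have a fitted effect of over 20% in size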); details: HepG2 viability, ATP luminescence (CellTiter-Glo), 1 h; at 83.2 µM (top of the series)
Outline: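 Cytotoxicity was quantified from ATP content by CellTiter-Glo luminescence in the same wells as the MMP dye read-out. HepG2 (2,000 cells/well) were plated overnight and exposed to compounds for 1 hr at 37 C.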

[5] = qHTS assay to test for compound auto fluorescence at 590 nm (red) in HepG2 cells (AID 720674); details: HepG2 autofluorescence, red 540/590 nm, 1 h; at 46 µM (top of the series)
Outline: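 Rose Bengal sodium served as the red fluorophore standard. HepG2 monolayers (overnight attachment, MEM with 10% FBS) were exposed to test compounds for 1 hr at 37 C and read at Ex 540/Em 590 nm.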

[6] = qHTS assay to test for compound auto fluorescence at 535 nm (green) in HepG2 cells (AID 720675); details: green autofluorescence 485/535 nm, 1 h; at 46 µM (top of the series)
Description: National Center for Advancing Translational Sciences [NCATS]
NIH Chemical Genomics Center [NCGC]
U.S. Environmental Protection Agency [EPA]
National Institutes of Environmental Health Sciences [NIEHS]
National Toxicology Program [NTP]
U.S. Food and Drug Administration [FDA]
Compound auto fluorescence often interferes with screening of the compound library against various biological targets and signaling pathways. Some of these compounds may have fluorophoric properties. Such properties may interfere with the assay outputs resulting in false positives and/or negatives. To decrease such complications and ensure the compound activities are relevant in terms of biological response, the Tox21 10K compound library was screened for auto fluorescence.
From the fluorophores used as reporter signals in our screening assays, the auto fluorescence equivalencies of compounds against three fluorophores have been evaluated: Triamterene, Fluorescein and Rose Bengal sodium for blue, green and red fluorescence, respectively. The fluorescence intensities were measured using Excitation/Emission wavelengths at 405/460nm, 485/535nm and 540/590nm for blue, green and red labels, respectively. This assay includes the green fluorescence data.
Tox21 Assay Protocol Summary: […]

[7] = qHTS assay to test for compound auto fluorescence at 460 nm (blue) in HEK293 cells (AID 720678); details: blue autofluorescence 405/460 nm; at 46 µM (top of the series)
Outline: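 HEK293, 2,000 cells/well, 10% dialyzed FBS; attach 4-5 hr 37C; pin compound or DMSO; o/n 37C/5% CO2; fluorescence 405/460 nm; triamterene-equivalent units.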

[8] = qHTS assay to test for compound auto fluorescence at 590 nm (red) in HEK293 cells (AID 720679); details: red autofluorescence 540/590 nm; at 46 µM (top of the series)
Outline: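 Intensity at 540nm excitation and 590nm emission is reported as Rose Bengal sodium-equivalent autofluorescence. Measurements followed overnight exposure (37C, 5% CO2) of HEK293 cells, 2,000 per well, to 23 nL compound.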

[9] = qHTS assay to test for compound auto fluorescence at 535 nm (green) in HEK293 cells (AID 720680); details: green autofluorescence 485/535 nm; at 46 µM (top of the series)
[10] = qHTS assay to test for compound auto fluorescence at 460 nm (blue) in HEK293 cell free culture (AID 720681); details: cell-free medium, autofluorescence 405/460 nm (blue); at 46 µM (top of the series)
Outline: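 Test compounds were pinned into cell-free culture medium (DMEM with 10% FBS) and fluorescence was read directly at Ex/Em 405/460 nm. Signals were expressed as fluorescence equivalents of triamterene, with DMSO vehicle as control.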

[11] = qHTS assay to test for compound auto fluorescence at 535 nm (green) in HEK293 cell free culture (AID 720682); details: cell-free medium, green autofluorescence 485/535 nm, stronger effect = higher value; at 46 µM (top of the series)
Outline: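 Green-channel intensity (Ex/Em 485/535 nm) was recorded from compound-treated wells containing only DMEM with 10% FBS. Fluorescein provided the equivalency standard.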

[12] = qHTS assay to test for compound auto fluorescence at 590 nm (red) in HEK293 cell free culture (AID 720683); details: cell-free medium autofluorescence, Ex540/Em590 red; at 46 µM (top of the series)
Outline: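 Tox21 10K library compounds were pinned into cell-free DMEM with 10% FBS and fluorescence was read at excitation 540 nm. Activity is expressed as Rose Bengal sodium equivalency.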

[13] = qHTS assay to test for compound auto fluorescence at 590 nm (red) in HepG2 cell free culture (AID 720684); details: cell-free medium autofluorescence, red 540/590 nm; at 46 µM (top of the series)
Outline: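 Readout: intrinsic compound fluorescence at 590 nm emission after 540 nm excitation, scaled to Rose Bengal sodium. Matrix was cell-free MEM with 10% FBS; DMSO vehicle wells served as control.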

[14] = qHTS assay to test for compound auto fluorescence at 460 nm (blue) in HepG2 cell free culture (AID 720685); details: Cell-free culture medium, blue autofluorescence 405/460 nm; at 46 µM (top of the series)
Outline: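 Cell-free plates of MEM plus 10% FBS received 23 nL compound or DMSO vehicle; blue-channel (405/460 nm) intensity scored against triamterene as reference fluorophore.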

[15] = qHTS assay to test for compound auto fluorescence at 535 nm (green) in HepG2 cell free culture (AID 720686); details: Cell-free medium, green autofluorescence 485/535 nm; at 46 µM (top of the series)
Description: U.S. Tox21 Program National Center for Advancing Translational Sciences [NCATS] NIH Chemical Genomics Center [NCGC] U.S. Environmental Protection Agency [EPA] National Institutes of Environmental Health Sciences [NIEHS] National Toxicology Program [NTP] U.S. Food and Drug Administration [FDA] Tox21 Assay Overview: Compound auto fluorescence often interferes with screening of the compound library against various biological targets and signaling pathways. Some of these compounds may have fluorophoric properties. Such properties may interfere with the assay outputs resulting in false positives and/or negatives. To decrease such complications and ensure the compound activities are relevant in terms of biological response, the Tox21 10K compound library was screened for auto fluorescence. From the fluorophores used as reporter signals in our screening assays, the auto fluorescence equivalencies of compounds against three fluorophores have been evaluated: Triamterene, Fluorescein and Rose Bengal sodium for blue, green and red fluorescence, respectively. The fluorescence intensities were measured using Excitation/Emission wavelengths at 405/460nm, 485/535nm and 540/590nm for blue, green and red labels, respectively. This assay includes the green fluorescence data. […]

[16] = qHTS assay to test for compound auto fluorescence at 460 nm (blue) in HepG2 cells (AID 720687); details: autofluorescence 405/460 nm, 1 h; at 46 µM (top of the series)
Outline: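 Cells (2,000/well in MEM with 10% FBS) attached overnight at 37 C, then were exposed to compound or DMSO for 1 hr at 37 C, 5% CO2. Fluorescence read at Ex/Em 405/460 nm, expressed as triamterene-equivalent signal.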

[17] = qHTS assay to identify small molecule antagonists of the glucocorticoid receptor (GR) signaling pathway - cell viability counter screen (AID 720693); details: GR-bla HeLa viability, CellTiter-Glo luminescence, 18 h, with 5 nM dexamethasone present; at 58.5 µM (top of the series); further: nearly all actives have a fitted effect of over 55% in size
On the % scale 0 is the no-effect control and ±100 the full control effect.

CN1CCCC(OC(=O)C(O)(c2ccccc2)c2ccccc2)C1 (configuration not stated)
inactive: activation [1] 1.39% | activity change, negative = cytotoxicity [2] 9.6% | activity, negative = cytotoxicity [3] 16% | activity change, negative = cytotoxicity [4] 4.12% | fluorescence, relative to Rose Bengal [5] 0.15% | fluorescence, % of fluorescein control [6] -0.105% | fluorescence, % of triamterene [7] 0.0382% | fluorescence, % of fluorescent control [8] -0.144% | fluorescence, % of fluorescein [9] 0.156% | fluorescence, % of fluorescent control [10] 0.0478% | activity change [11] -0.0804% | fluorescence, % of fluorescent control [12] -0.46% | fluorescence, % of Rose Bengal [13] -0.0681% | fluorescence, % of fluorescent control [14] -0.162% | fluorescence, % of fluorescein control [15] 0.0661% | fluorescence, % of fluorescent control [16] 0.0231% | viability change, negative = cytotoxic [17] 6.6%
